Drawing on US12398142B2, “Abelson non-tyrosine kinase compounds for the treatment of neurodegenerative diseases” (Emory University, priority 2019, dated 2025), this text covers IC50 for one molecule.

By UniProt entry, the sequences of proteins in these tests, tags left out. Where a name states a change or a piece, a line headed by the entry shows the natural chain unless it says otherwise.
UniProt Q12809: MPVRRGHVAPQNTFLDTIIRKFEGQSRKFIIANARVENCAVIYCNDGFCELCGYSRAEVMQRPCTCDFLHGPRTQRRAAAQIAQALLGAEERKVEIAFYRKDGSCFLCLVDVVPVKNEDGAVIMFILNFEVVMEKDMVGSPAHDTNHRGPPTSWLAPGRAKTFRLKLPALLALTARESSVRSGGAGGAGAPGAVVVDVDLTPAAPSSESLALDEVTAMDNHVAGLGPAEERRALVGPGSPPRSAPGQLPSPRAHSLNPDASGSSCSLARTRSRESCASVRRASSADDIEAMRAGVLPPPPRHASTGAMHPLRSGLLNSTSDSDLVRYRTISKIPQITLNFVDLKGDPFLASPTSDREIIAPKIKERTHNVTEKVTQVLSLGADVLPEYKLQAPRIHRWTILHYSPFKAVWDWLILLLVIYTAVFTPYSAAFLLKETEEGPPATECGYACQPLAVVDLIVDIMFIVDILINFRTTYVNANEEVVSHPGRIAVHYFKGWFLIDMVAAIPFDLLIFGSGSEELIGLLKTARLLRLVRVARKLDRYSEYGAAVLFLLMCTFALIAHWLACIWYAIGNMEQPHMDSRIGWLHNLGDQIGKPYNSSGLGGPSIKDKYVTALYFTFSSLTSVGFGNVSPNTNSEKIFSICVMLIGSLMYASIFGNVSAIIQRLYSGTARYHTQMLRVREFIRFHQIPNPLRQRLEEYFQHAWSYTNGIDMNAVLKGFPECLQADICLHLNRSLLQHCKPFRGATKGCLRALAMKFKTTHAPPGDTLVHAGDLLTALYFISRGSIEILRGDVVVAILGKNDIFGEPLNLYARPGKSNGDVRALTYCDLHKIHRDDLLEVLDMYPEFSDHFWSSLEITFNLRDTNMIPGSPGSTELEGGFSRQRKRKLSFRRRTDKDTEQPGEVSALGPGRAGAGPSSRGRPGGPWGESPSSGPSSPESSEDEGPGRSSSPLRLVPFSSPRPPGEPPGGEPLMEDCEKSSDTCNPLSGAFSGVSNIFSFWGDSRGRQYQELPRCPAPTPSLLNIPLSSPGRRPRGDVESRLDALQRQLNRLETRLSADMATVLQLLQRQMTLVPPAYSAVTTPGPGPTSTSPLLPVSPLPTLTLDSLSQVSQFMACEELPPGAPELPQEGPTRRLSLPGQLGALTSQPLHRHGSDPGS

For series [1], the target named is T1, hERG (Homo sapiens (Human), UniProt Q12809). Conditions: Weisberg et al., Cancer Cell 2005; cited from earlier work.
The target in series [2] is T1, hERG. Conditions: read-out: hERG IC50; summary table; unit given as mM.

Read-outs that look alike come from different tables or passages of the source.

In the case of `Cc1cn(-c2cc(NC(=O)c3ccc(C)c(Nc4nccc(-c5cccnc5)n4)c3)cc(C(F)(F)F)c2)cn1` [Nilotinib, reference compound], the figures for the IC50 on hERG [1] and on hERG [2] were 660 nM and 0.00045 mM, respectively.
